Key:
[1] = biological target: T1, Human FMO1 (Homo sapiens, UniProt Q01740); settings: 15 μg enzyme/incubation; 30 mins, 37° C.
T1 sequence (Q01740 1-532): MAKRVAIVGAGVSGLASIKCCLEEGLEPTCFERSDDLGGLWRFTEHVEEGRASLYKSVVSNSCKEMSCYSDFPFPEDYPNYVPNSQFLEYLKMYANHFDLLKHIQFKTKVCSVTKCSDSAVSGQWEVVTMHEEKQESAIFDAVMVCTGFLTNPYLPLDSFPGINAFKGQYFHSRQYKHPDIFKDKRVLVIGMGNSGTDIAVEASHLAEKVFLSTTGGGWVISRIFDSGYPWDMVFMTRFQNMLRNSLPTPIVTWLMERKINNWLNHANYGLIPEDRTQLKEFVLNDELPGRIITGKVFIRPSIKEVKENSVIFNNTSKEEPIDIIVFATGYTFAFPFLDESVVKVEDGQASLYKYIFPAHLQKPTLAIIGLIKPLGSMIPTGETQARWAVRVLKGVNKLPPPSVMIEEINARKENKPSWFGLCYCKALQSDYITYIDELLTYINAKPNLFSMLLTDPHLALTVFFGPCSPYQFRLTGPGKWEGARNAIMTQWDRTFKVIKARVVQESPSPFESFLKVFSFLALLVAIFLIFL

[2] = Metabolism in mouse hepatic S9; settings: 0.4 mg protein/incubation; 30 mins, 37° C.
[3] = Metabolism in human hepatic S9; settings: 0.4 mg protein/incubation; 30 mins, 37° C.

Row | SMILES | Human FMO1, nmol metab./incub. [1] | Mouse S-9, nmol metab./incub. [2] | Human S-9, nmol metab./incub. [3]
1 | Cc1cccc(C)c1OCC(C)N (racemic) [Mexiletine, reference compound] | 2.4 nmol metab./incub. | 8.0 nmol metab./incub. | 3.9 nmol metab./incub.
2 | Cl.[2H]C(C)(N)COc1c(C)cccc1C [D-Mexiletine] | 1.4 nmol metab./incub. | 3.9 nmol metab./incub. | –
